Experiment [1] concerns CHO. The experiment is described as follows: Ratio of Ki for human delta opioid receptor to Ki for human kappa opioid receptor expressed in CHO cells. Type of experiment: cell-based.
Experiment [2] has as its system CHO. The experiment is described as follows: Ratio of Ki for human mu opioid receptor to Ki for human kappa opioid receptor expressed in CHO cells. Type of experiment: cell-based.

Take `CO[C@@]12CC[C@@]3(C[C@@H]1[C@@](C)(O)C(C)(C)C)[C@H]1Cc4ccc(C(N)=O)c5c4[C@@]3(CCN1CC1CC1)[C@H]2O5`: the Ratio Ki in experiment [1] came to 26; in experiment [2], 0.4.

Source of the values: ChEMBL document CHEMBL1139291, “Syntheses and opioid receptor binding properties of carboxamido-substituted opioids” (Bioorg Med Chem Lett, 2009).
